The list shows a part of the results, in another mix than the full data. Records with an inconclusive call do not appear. Some structures show a salt or complex split into parts, the way the source records it. Calls of active or inactive are those of the source. Calls come from the whole dose curve; as a rule, active = well fitted inhibition curve with a large enough effect; inconclusive = small, poorly fitted or top-dose-only effect, or effect the other way; inactive = flat fitted curve, though single readings scatter.

The assay can be described thus: qHTS Assay for Inhibitors of the ERK Signaling Pathway using a Homogeneous Screening Assay; Stimulation with EGF.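 Note: plate controls were stimulated vehicle wells for no effect and unstimulated vehicle basal for full effect; nearly all actives have a fitted effect of over 55% in size.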 The note with it: HEK293-V1b, EGF-stimulated phospho-ERK AlphaScreen; at 11.5 µM unless noted.
As for `O=C(OC1CN2CCC1CC2)C1c2ccccc2C=Cc2ccccc21` (stereo not drawn), the activity change, negative = inhibition is inactive: 8.41%.

With `O=C(O)c1cccc(Nc2c([N+](=O)[O-])cc([N+](=O)[O-])cc2[N+](=O)[O-])c1`, the activity change, negative = inhibition was inactive: -6.35% [at 57.5 µM].

Take `COc1ccc(C(=O)NCC2(N3CCOCC3)CCCCC2)cc1OC`: the activity change, negative = inhibition is inactive: 4.95%.

Take `N#Cc1ccc(C(=O)NCC2(N3CCCCC3)CCCCC2)cc1`: the activity change, negative = inhibition was inactive: -8.26%.

Take `CCOC(=O)C(CC)C1=NC(C)(C)Cc2ccccc21.O=[N+]([O-])c1cc([N+](=O)[O-])c(O)c([N+](=O)[O-])c1` (stereo not drawn): the activity change, negative = inhibition was inactive: -10.7% [at 57.5 µM].

`CCN1CCC(Nc2cccc(F)c2)CC1`: the activity change, negative = inhibition is inactive: 6.36%.

`CN(C)c1ccc(C(=O)NCC2(N3CCCCC3)CCCCC2)cc1`: the activity change, negative = inhibition was inactive: -3.77%.

In the case of `COc1cc(OC)cc(C(=O)NCC2(N3CCOCC3)CCCCC2)c1`, the activity change, negative = inhibition is inactive: -5.12%.

`CCCOc1ccc(C)cc1CN(CCCl)CCCl`: the activity change, negative = inhibition was inactive: 5.09% [at 57.5 µM].

Consider `CC(C)(C)OC(=O)N1CCC(Nc2ccccc2)CC1`, for which the activity change, negative = inhibition is inactive: -6.53%.

Turning to `CCOC(=O)N1CCC(Nc2ccc(OC)cc2)CC1`, the activity change, negative = inhibition is inactive: -0.842%.

Take `N#CC1(Nc2ccccc2)CCN(Cc2ccccc2)CC1`: the activity change, negative = inhibition was inactive: 0.82% [at 57.5 µM].

Regarding `COc1ccc(C(=O)NCC2(N3CCCCC3)CCCCC2)c(OC)c1OC`, the activity change, negative = inhibition was inactive: -3.78%.

On to `Cc1ccc(OCC(C)C)c(CN(CCCl)CCCl)c1`, for which the activity change, negative = inhibition was inactive: 16.3% [at 57.5 µM].

On to `CCOc1ccc(C)cc1CN(CCCl)CCCl`, for which the activity change, negative = inhibition was inactive: -1.76% [at 57.5 µM].

For the molecule `O=[N+]([O-])c1cc([N+](=O)[O-])c(NCC2CCS(=O)(=O)C2)c([N+](=O)[O-])c1` (stereo not drawn), the activity change, negative = inhibition is inactive: 0.213%.

As to `CN1CCN(CCOC(=O)C(O)(c2ccccc2)c2ccccc2)CC1`, the activity change, negative = inhibition is inactive: -7.16%.

As to `COc1ccc(NC2CCN(C(=O)OC(C)(C)C)CC2)cc1`, the activity change, negative = inhibition is inactive: -2.24%.

As for `O=C(NCC1(N2CCCCC2)CCCCC1)c1cccc([N+](=O)[O-])c1`, the activity change, negative = inhibition was inactive: 4.45%.

Turning to `COc1ccc2c(c1O)-c1c(O)c(OC)cc3c1[C@H](C2)[N+](C)(C)CC3.O=[N+]([O-])c1cc([N+](=O)[O-])c([O-])c([N+](=O)[O-])c1[O-]`, the activity change, negative = inhibition is inactive: -1.29% [at 57.5 µM].

For `O=C(OC1CN2CCC1CC2)c1ccc([N+](=O)[O-])cc1` (stereo not drawn), the activity change, negative = inhibition was inactive: -0.676% [at 57.5 µM].

As for `COc1ccc(CN(CCCl)CCCl)cc1Cl`, the activity change, negative = inhibition was inactive: 30.4%.

For `CN(C)c1cccc(C(=O)NCC2(N3CCCCC3)CCCCC2)c1`, the activity change, negative = inhibition was inactive: -5.94%.

The values are drawn from PubChem BioAssay AID1454 (National Center for Advancing Translational Sciences (NCATS), 2008).
